Laboratory results taken from ChEMBL document CHEMBL3763070, “Development of CINPA1 analogs as novel and potent inverse agonists of constitutive androstane receptor” (Eur J Med Chem, 2016).

Biological target: T1, Nuclear receptor subfamily 1 group I member 3 (Homo sapiens, UniProt Q14994)
T1 sequence (Q14994 whole entry): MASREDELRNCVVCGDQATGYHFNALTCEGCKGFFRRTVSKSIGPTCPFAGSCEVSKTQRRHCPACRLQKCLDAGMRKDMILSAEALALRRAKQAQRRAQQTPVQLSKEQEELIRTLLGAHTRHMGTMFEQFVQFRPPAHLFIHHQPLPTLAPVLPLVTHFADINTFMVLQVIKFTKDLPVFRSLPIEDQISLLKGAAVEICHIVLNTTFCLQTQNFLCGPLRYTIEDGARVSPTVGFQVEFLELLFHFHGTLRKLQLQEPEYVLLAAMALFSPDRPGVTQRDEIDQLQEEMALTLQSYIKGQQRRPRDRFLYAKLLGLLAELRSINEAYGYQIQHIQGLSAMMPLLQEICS
Experiment: Inverse agonist activity at GST tagged-human CAR-LBD assessed as reduction in fluorescein-PGC1 alpha coactivator recruitment after 1 hr by TR-FRET assay

CCOC(=O)Nc1ccc2c(c1)N(C(=O)CN1C3CCC1CC3)c1ccccc1CC2
IC50: 1410 nM
